Measurements: patent US10351558B2, “Factor IXa inhibitors” (Merck Sharp & Dohme Corp., priority 2015, dated 2019)
Structures can show the parent of a compound that is named as a salt.

Chains of the proteins cited; added tags and fusions are not shown. Residues count along the entry.
UniProt P00740, 227-461: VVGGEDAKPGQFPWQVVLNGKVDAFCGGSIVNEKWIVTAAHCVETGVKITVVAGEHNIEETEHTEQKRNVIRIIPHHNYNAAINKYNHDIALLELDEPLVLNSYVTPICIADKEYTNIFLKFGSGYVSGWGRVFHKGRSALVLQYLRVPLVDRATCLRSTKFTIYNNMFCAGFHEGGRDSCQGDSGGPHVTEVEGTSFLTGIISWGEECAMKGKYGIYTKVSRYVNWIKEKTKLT
UniProt P00740, 47-191 partner: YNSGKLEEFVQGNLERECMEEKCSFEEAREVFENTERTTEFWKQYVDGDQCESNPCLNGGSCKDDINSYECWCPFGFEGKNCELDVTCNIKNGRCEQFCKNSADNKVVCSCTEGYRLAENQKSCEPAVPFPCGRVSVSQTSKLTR

target: hFIXa (Homo sapiens (Human), UniProt P00740); experiment: Determination of inhibitory activity against Factor IXa (cleavage of fluorescent peptide CH3SO2-D-CHG-Gly-Arg-AFC); format: biochemical

Structure (SMILES)	IC50
Cc1ccc2c(c1)c(-c1cnc(N)nc1)c1n2C[C@@](NC(=O)c2ccc(-n3cnnc3)cc2Cl)(c2ccccc2)CC1 [Example 190]	7.11 nM
Cc1ccc2c(c1)c(-c1cncc(F)c1)c1n2C[C@@](NC(=O)c2ccc(-n3cnnc3)cc2Cl)(c2ccccc2)CC1 [Example 191]	5.17 nM
Cc1ccc2c(c1)c(C(=O)C(F)(F)F)c1n2C[C@@](NC(=O)c2ccc(-n3cnnc3)cc2Cl)(c2ccccc2)CC1 [Example 192, 2-chloro-N-(2-methyl-7-phenyl-10-(2,2,2-trifluoroacetyl)-6,7,8,9-tetrahydropyrido[1,2-a]indol-7-yl)-4-(4H-1,2,4-triazol-4-yl)benzamide, TFA]	5.19 nM
Cc1ccc2c(c1)c([C@@H](O)C(F)(F)F)c1n2C[C@@](NC(=O)c2ccc(-n3cnnc3)cc2Cl)(c2ccccc2)CC1 [Example 193, 2-chloro-N-(2-methyl-7-phenyl-10-((R)-2,2,2-trifluoro-1-hydroxyethyl)-6,7,8,9-tetrahydropyrido[1,2-a]indol-7-yl)-4-(4H-1,2,4-triazol-4-yl)benzamide]	5.72 nM
Cc1ccc2c(c1)c([C@H](O)C(F)(F)F)c1n2C[C@@](NC(=O)c2ccc(-n3cnnc3)cc2Cl)(c2ccccc2)CC1 [Example 194, 2-chloro-N-(2-methyl-7-phenyl-10-((S)-2,2,2-trifluoro-1-hydroxyethyl)-6,7,8,9-tetrahydropyrido[1,2-a]indol-7-yl)-4-(4H-1,2,4-triazol-4-yl)benzamide]	5.55 nM
COC(=O)/C=C/c1c2n(c3ccc(C)cc13)C[C@@](NC(=O)c1ccc(-n3cnc(C)n3)cc1Cl)(c1ccccc1)CC2 [Example 195]	9.97 nM
Cc1ccc2c(c1)c(-c1cncc(C#N)c1)c1n2CC(NC(=O)c2ccc(-n3cnnc3)cc2Cl)(c2ccccc2)CC1 (centres unmarked) [Example 196]	11.9 nM
COC(=O)Cc1c2n(c3ccc(C)cc13)C[C@@](NC(=O)c1c(Cl)cc(-n3cnnc3)cc1Cl)(c1ccccc1)CC2 [Example 197]	1.87 nM
COc1cncc(-c2c3n(c4ccc(C)cc24)C[C@@](NC(=O)c2ccc(-n4cnnc4)cc2Cl)(c2ccccc2)CC3)c1 [Example 198]	3.27 nM
Cc1ccc2c(c1)c(-c1cncc(CO)c1)c1n2C[C@@](NC(=O)c2ccc(-n3cnnc3)cc2Cl)(c2ccccc2)CC1 [Example 199]	2.75 nM
COc1ccc(-c2c3n(c4ccc(C)cc24)C[C@@](NC(=O)c2ccc(-n4cnnc4)cc2Cl)(c2ccccc2)CC3)cn1 [Example 200]	2.63 nM
COc1ccncc1-c1c2n(c3ccc(C)cc13)C[C@@](NC(=O)c1ccc(-n3cnnc3)cc1Cl)(c1ccccc1)CC2 [Example 201]	14.9 nM
Cc1ccc2c(c1)c(-c1ccc(CO)nc1)c1n2C[C@@](NC(=O)c2ccc(-n3cnnc3)cc2Cl)(c2ccccc2)CC1 [Example 202]	5.78 nM
COc1ncc(-c2c3n(c4ccc(C)cc24)C[C@@](NC(=O)c2ccc(-n4cnnc4)cc2Cl)(c2ccccc2)CC3)cn1 [Example 203]	1.71 nM
Cc1ccc2c(c1)c(C1=CC(=O)N(C)CC1)c1n2C[C@@](NC(=O)c2ccc(-n3cnnc3)cc2Cl)(c2ccccc2)CC1 [Example 204]	4.04 nM
Cc1ccc2c(c1)c(S(C)(=O)=O)c1n2C[C@@](NC(=O)c2c(Cl)cc(-n3cnnc3)cc2Cl)(c2ccccc2)CC1 [Example 205, (S)-2,6-dichloro-N-(2-methyl-10-(methylsulfonyl)-7-phenyl-6,7,8,9-tetrahydropyrido[1,2-a]indol-7-yl)-4-(4H-1,2,4-triazol-4-yl)benzamide]	5.3 nM
Cc1ccc2c(c1)c(-c1cnc(C3CC3)nc1)c1n2C[C@@](NC(=O)c2ccc(-n3cnnc3)cc2Cl)(c2ccccc2)CC1 [Example 206]	1.58 nM
CC(=O)c1ccc(-c2c3n(c4ccc(C)cc24)C[C@@](NC(=O)c2ccc(-n4cnnc4)cc2Cl)(c2ccccc2)CC3)cn1 [Example 207]	6.94 nM
Cc1ccc2c(c1)c(-c1cncc(C(=O)O)c1)c1n2C[C@@](NC(=O)c2ccc(-n3cnnc3)cc2Cl)(c2ccccc2)CC1 [Example 208]	8.27 nM
COc1ncc(-c2c3n(c4ccc(C)cc24)C[C@@](NC(=O)c2ccc(-n4cnnc4)cc2Cl)(c2ccccc2)CC3)cc1F [Example 209]	6.18 nM
Cc1ccc2c(c1)c(C(=O)C(F)(F)F)c1n2C[C@@](NC(=O)c2c(Cl)cc(-n3cnnc3)cc2Cl)(c2ccccc2)CC1 [Example 210]	13.6 nM
COc1ncc(-c2c3n(c4ccc(C)cc24)C[C@@](NC(=O)c2ccc(-n4cnnc4)cc2Cl)(c2ccccc2)CC3)cc1C#N [Example 211]	6.77 nM
COC(=O)c1ccc(-c2c3n(c4ccc(C)cc24)C[C@@](NC(=O)c2ccc(-n4cnnc4)cc2Cl)(c2ccccc2)CC3)cn1 [Example 212]	7.19 nM
Cc1ccc2c(c1)c(-c1cncc(C(C)(C)O)c1)c1n2C[C@@](NC(=O)c2ccc(-n3cnnc3)cc2Cl)(c2ccccc2)CC1 [Example 213]	4.37 nM
Cc1ccc2c(c1)nc1n2CC(NC(=O)c2ccc(-n3cnnc3)cc2Cl)(c2cccc(F)c2)CS1 (centres unmarked) [Example 214, 2-chloro-N-(3-(3-fluorophenyl)-8-methyl-3,4-dihydro-2H-benzo[4,5]imidazo[2,1-b][1,3]thiazin-3-yl)-4-(4H-1,2,4-triazol-4-yl)benzamide]	5.4 nM
Cc1ccc2c(c1)nc1n2CC(NC(=O)c2ccc(-n3cnnc3)cc2Cl)(c2cccc(F)c2)CO1 (centres unmarked) [Example 215, 2-chloro-N-[3-(3-fluorophenyl)-8-methyl-3,4-dihydro-2H-[1,3]oxazino[3,2-a]benzimidazol-3-yl]-4-(4H-1,2,4-triazol-4-yl)benzamide]	6840 nM
